The values that follow come from patent US20110086005A1, “MODULATING INTERSTITIAL PRESSURE AND ONCOLYTIC VIRAL DELIVERY AND DISTRIBUTION” ([…] INC., priority 2008, published 2011).

The subject of the series is subcutaneous B16 tumors. Nature of the series: Systemic delivery of intravenous reovirus to subcutaneous B16 tumors after PC-61 and/or IL-2 preconditioning (viral titers from tumor lysates). The note with it: preconditioning before intravenous reovirus 3.75×10^9 TCID50; FIG. 3. The series is classed as in vivo, C57B1/6 mice. As to the method:
C57B1/6 mice were seeded with subcutaneous B16 tumors. Nine days later, mice received an intraperitoneal injection of anti-CD25 antibody PC-61 or a control IgG. Twenty-four hours later, mice were injected intraperitoneally with PBS or with recombinant human IL-2 at a dose of 75,000 units/injection three times a day for 3 d. On the fourth day, a single further injection of IL-2 was given. Two hours after this last injection of IL-2/PBS, mice received an intravenous injection of reovirus (3.75×10^9 TCID50) followed 24 h later by a second similar injection of virus. 72 h later, tumors were explanted and dissociated and viral titers recovered from freeze/thaw lysates of tumors from mice treated as shown were determined (3 mice per group).
Therefore, the therapeutic efficacy of PC-61 or CPA (which mimics the effects of PC-61)+IL-2+reovirus was tested wherein the viral dose of reovirus was reduced to 1×10^8 TCID50 per injection. […] None of the mice treated with the preconditioning regimens and intravenous reovirus developed toxicities. […] Therefore, preconditioning with CPA+IL-2 enhanced the therapy produced by systemic delivery of intravenously delivered reovirus to a level indistinguishable from that induced by PC-61+IL-2.
This is due to IL-2-induced vascular leakage at the tumor site, which increased the ability of systemically delivered virus to localize into established tumors.

On to IL-2: recombinant human IL-2, for which the “localization of intravenously delivered reovirus to subcutaneous established B16 tumors” value is recorded as “enhanced the localization”.
